The values that follow come from publication PMC7383964 (Chemmedchem, 2020).

Sequences of proteins named here, by UniProt entry; tags and fusion partners are left off. A change or cut given only in a name is not applied to a line headed by its entry.
UniProt P35372, whole entry, looked up: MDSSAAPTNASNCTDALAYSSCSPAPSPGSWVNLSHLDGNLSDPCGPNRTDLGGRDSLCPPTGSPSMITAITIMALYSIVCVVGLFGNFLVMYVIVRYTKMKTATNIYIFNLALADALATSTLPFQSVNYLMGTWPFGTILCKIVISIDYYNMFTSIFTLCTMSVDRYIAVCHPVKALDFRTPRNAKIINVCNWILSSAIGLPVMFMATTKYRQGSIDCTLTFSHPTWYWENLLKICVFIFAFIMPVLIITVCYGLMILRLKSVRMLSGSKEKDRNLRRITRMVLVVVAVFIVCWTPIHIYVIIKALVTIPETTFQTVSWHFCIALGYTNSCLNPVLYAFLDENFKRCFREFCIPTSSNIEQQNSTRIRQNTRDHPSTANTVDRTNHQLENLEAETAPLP
UniProt P41145: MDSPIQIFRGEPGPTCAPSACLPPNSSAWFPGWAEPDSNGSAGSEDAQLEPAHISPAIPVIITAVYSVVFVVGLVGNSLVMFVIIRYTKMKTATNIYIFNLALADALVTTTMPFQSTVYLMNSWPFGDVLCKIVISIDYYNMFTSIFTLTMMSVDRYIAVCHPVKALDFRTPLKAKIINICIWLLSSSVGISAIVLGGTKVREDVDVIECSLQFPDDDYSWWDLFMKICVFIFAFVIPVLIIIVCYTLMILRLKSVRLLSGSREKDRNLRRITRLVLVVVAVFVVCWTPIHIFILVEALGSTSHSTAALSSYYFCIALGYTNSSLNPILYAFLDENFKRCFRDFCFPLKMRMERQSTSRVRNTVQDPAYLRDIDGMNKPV

The target in data set [1] is T1, μ‐OR (Homo sapiens, UniProt P35372). The settings on record: read-out: K i μ, cited from earlier work.
The test system of data set [2] is κ‐OR. The settings on record: read-out: K i κ, cited from earlier work.
Data set [3] can be described thus: Microsomal stability assay. The settings on record: rat liver microsomes 1 mg protein/mL, NADPH, 37 °C; for Intrinsic clearance: Table 3.
Data set [4] addresses T1, μ‐OR. In words: β‐arrestin‐2 recruitment (PathHunter assay). The settings on record: for Functional property, β‐arrestin‐2 recruitment: agonist mode, HEK‐293 cells with EA‐tagged β‐arrestin‐2 and μ‐OR‐PK1; for IC50: read-out: IC50 for inhibition of DAMGO activity, arrestin recruitment, antagonist mode, DAMGO 1 μM.
Data set [5] relates to HEK293T cells. Description: Test on cytotoxicity (cell number after 24 h). To be noted: 100 nM, n=6, mean±SEM.
The target in data set [6] is T1, μ‐OR. In words: IP accumulation assay (IP‐One) for G‐protein mediated signaling. To be noted: for IC50: read-out: IC50 for inhibition of DAMGO activity, IP accumulation, antagonist mode, DAMGO at EC80 concentration of 30 nM.
Data set [7] addresses T1, μ‐OR. In words: Radioligand depletion assay (test on covalent blocking of the receptor). The settings on record: preincubation 60 min 37 °C, 9 b 60 nM, 16 b 100 nM, four washes, then [^3H]diprenorphine binding; three experiments.
Data set [8] concerns the target human δ‐OR (Homo sapiens, UniProt P41143). In words: Radioligand competition binding with [^3H]diprenorphine, membranes of transiently transfected HEK293T cells. The settings on record: for Ki: read-out: K i δ, [^3H]diprenorphine, HEK293T membranes, mean ±SEM of 3 to 11 experiments in triplicate.
Data set [9] addresses human κ‐OR (Homo sapiens, UniProt P41145). The data set is described as above. To be noted: for Ki: read-out: K i κ, [^3H]diprenorphine, HEK293T membranes, mean ±SEM of 3 to 11 experiments in triplicate.
Data set [10] deals with T1, μ‐OR. Described as above. To be noted: for Ki: read-out: K i μ, [^3H]diprenorphine, HEK293T membranes, mean ±SEM of 3 to 11 experiments in triplicate; for Selectivity μ/δ / Selectivity μ/κ: subtype selectivity for μ‐OR expressed as ratio of K i values.
Data set [11] has as its system δ‐OR. The settings on record: read-out: K i δ, cited from earlier work.
Data set [12] addresses T1, μ‐OR. In words: Literature binding affinities of known ligands. To be noted: ratio of K i values reported by Derrick et al.
The mark [13] stands for this setting: agonist mode, HEK‐293T with μ‐OR and Gαqi.

Each structure is given as a SMILES string. Where two headings read alike, the source gives them in different places.

Consider `COc1ccc2c3c1OC1C4(OC)CCC5(CC4COCc4ccc6ccccc6c4)C(C2)N(CC2CC2)CCC315` (stereo not shown), for which the values for the Ki in data set [1] and in data set [2] were 1.87 nM and 0.74 nM, respectively.
Regarding `COc1ccc2c3c1OC1C4(OC)CCC5(CC4CNC(=O)N=Nc4ccc(F)cc4)C(C2)N(CC2CC2)CCC315` (stereo not shown), in data set [3], the “Half‐life” value stood at 2.77 ± 0.267 h, the “Intrinsic clearance (CL’ int)” value worked out at 42 ± 4 µL/min/mg and the Intrinsic clearance stood at 42 ± 4 µL/min/mg. In addition, in [4], the “Functional property, β‐arrestin‐2 recruitment” value is recorded as “antagonist properties” and the half-inhibitory concentration (IC50) came out at 22 nM. In [5], the “Cell density relative to the effect of vehicle (DMSO)” value was 92±6%. In addition, in [6] (setting [13]), the “Functional property, G‐protein mediated signaling (IP accumulation)” value is given as “weak partial agonist effect”. Besides, the “Efficacy for G‐protein mediated signaling” value in data set [6] (agonist mode, HEK‐293T with μ‐OR and Gαqi, relative to DAMGO (100 %)) was 19%. Besides, in [6], the IC50 worked out at 20 nM. Also, in data set [7], the “Covalent blocking of the radioligand binding site” value is on record as “no blocking of the radioligand binding site”. In addition, in data set [8], the Ki turned out to be 36 nM. The Ki in [9] worked out at 10 nM. Moreover, in data set [10], the Ki came out at 1.5 nM, the Selectivity μ/δ was 24 and the Selectivity μ/κ worked out at 6.7.
With `COC(=O)/C=C/C(=O)N[C@@H]1CC[C@@]2(O)[C@H]3Cc4ccc(O)c5c4[C@@]2(CCN3CC2CC2)[C@H]1O5` [listing 1 of 2 here], the Ki in data set [2] (as reported by Derrick et al.) is 0.9 nM. Also, the “Factor by which K i is increased under the authors' assay conditions, δ‐OR” value in data set [8] (own K i versus K i of ref 34) amounted to 3.5. For the same molecule, the “Factor by which K i is increased under the authors' assay conditions, κ‐OR” value in data set [9] (own K i versus K i of ref 34) came to 11. The “Factor by which K i is increased under the authors' assay conditions, μ‐OR” value in data set [10] (own K i versus K i of ref 34) is on record as 4.
Regarding `COc1ccc2c3c1OC1C4(OC)CCC5(CC4COCc4ccc(-c6ccccc6)cc4)C(C2)N(CC2CC2)CCC315` (stereo not shown), the values for the Ki in [1], in data set [2] and in data set [11] were 1.91 nM, 25.8 nM and 1750 nM, respectively.
On to `COc1ccc2c3c1OC1C4(OC)CCC5(CC4COc4ccccc4)C(C2)N(CC2CC2)CCC315` (stereo not shown), for which the Ki is 14.4 nM in data set [1], 0.15 nM in data set [2] and 89.3 nM in data set [11].
Take `COC12CCC3(CC1CNC(=O)C=Cc1ccccc1)C1Cc4ccc(O)c5c4C3(CCN1CC1CC1)C2O5` (stereo not shown): the Ki in data set [1] (as reported by Derrick et al.) was 0.7 nM; in data set [2] (as reported by Derrick et al.) it was 2.6 nM; in [11] (as reported by Derrick et al.) it was 0.7 nM. Besides, the Selectivity μ/δ in [12] amounted to 1. Also, the Selectivity μ/κ in data set [12] was 4.
With `COc1ccc2c3c1OC1C4(OC)CCC5(CC4CNC(=O)N=Nc4ccccc4)C(C2)N(CC2CC2)CCC315` (stereo not shown), the Ki in [8] is 30 nM. Moreover, the Ki in data set [9] came out at 19 nM. For the same molecule, in data set [10], the Ki came to 2.3 nM, the Selectivity μ/δ is 13 and the Selectivity μ/κ is 8.3.
In the case of `COc1ccc2c3c1OC1C4(OC)CCC5(CC4CNC(=O)C=Cc4ccc(F)cc4)C(C2)N(CC2CC2)CCC315` (stereo not shown), in [3], the “Half‐life” value was 4.2 ± 1.57 h, the “Intrinsic clearance (CL’ int)” value is 28 ± 5 µL/min/mg and the Intrinsic clearance came to 28 ± 5 µL/min/mg. In data set [4], the “Functional property, β‐arrestin‐2 recruitment” value is “neutral antagonist” and the half-inhibitory concentration (IC50) came out at 23 nM. In data set [5], the “Cell density relative to the effect of vehicle (DMSO)” value is given as 106±6%. The “Functional property, G‐protein mediated signaling (IP accumulation)” value in data set [6] (setting [13]) is reported as “neutral antagonist”. In [6], the IC50 is 9.2 nM. Moreover, in [7], the “Covalent blocking of the radioligand binding site” value is “no blocking of the radioligand binding site”. Besides, the Ki in [8] was 58 nM. Further, the Ki in data set [9] came out at 25 nM. In data set [10], the Ki stood at 3.3 nM, the Selectivity μ/δ came out at 18 and the Selectivity μ/κ turned out to be 7.6.
Regarding `COc1ccc(N=NC(=O)NCC2CC34CCC2(OC)C2Oc5c(OC)ccc6c5C23CCN(CC2CC2)C4C6)cc1` (stereo not shown), the Ki in data set [8] is 63 nM; in data set [9], 11 nM; in data set [10], 4 nM. For the same molecule, the Selectivity μ/δ in [10] worked out at 16. For the same molecule, the Selectivity μ/κ in data set [10] turned out to be 2.8.
As to `COc1ccc2c3c1OC1C4(OC)CCC5(CC4CNC(=O)C=Cc4ccccc4)C(C2)N(CC2CC2)CCC315` (stereo not shown), the Ki in [8] was 54 nM. Moreover, the Ki in [9] is 18 nM. In data set [10], the Ki was determined as 4.9 nM, the Selectivity μ/δ came out at 11 and the Selectivity μ/κ is 3.7.
`COC(=O)/C=C/C(=O)N[C@@H]1CC[C@@]2(O)[C@H]3Cc4ccc(O)c5c4[C@@]2(CCN3CC2CC2)[C@H]1O5` [listing 2 of 2 here]: the Ki in [1] (as reported by Derrick et al.) is 0.4 nM; in [8], 26 nM; in data set [9], 10 nM; in data set [10], 1.5 nM.
`COc1ccc2c3c1OC1C4(OC)CCC5(CC4CNC(=O)N=Nc4ccc(Br)cc4)C(C2)N(CC2CC2)CCC315` (stereo not shown): the Ki in data set [8] came to 28 nM. The Ki in data set [9] amounted to 10 nM. For the same molecule, in data set [10], the Ki stood at 1.3 nM, the Selectivity μ/δ was found to be 22 and the Selectivity μ/κ came out at 7.7.
As to `CO[C@]12CC[C@@]3(C[C@@H]1C(C)(C)O)[C@H]1Cc4ccc(O)c5c4[C@@]3(CCN1CC1CC1)[C@H]2O5`, the Ki in [1] is 0.14 nM; in data set [2], 2 nM; in data set [11], 0.73 nM.
